Results on two substances are retold here after patent US20060263368A1, “Targeted chimeric molecules for cancer therapy” (Research Development Foundation, priority 2005, published 2006).

One data set relates to SKBR-3-LP cells. In words: Western blot of TNF receptor expression. Type of data set: cell-based, human. As to the method: SKBR-3 cells were grown in McCoy's 5A modified medium (DMEM, Life Technologies Inc., Rockville, Md.) supplemented with 10% heat-inactivated fetal bovine serum (FBS), 2 mM L-glutamine, 100 units/ml penicillin and 100 μg/ml streptomycin. […] The L3.6pl human pancreatic cancer cell line was kindly provided by Dr. Killian (M.D. Anderson Cancer Center, Houston, Tex.) and was grown in Dulbecco's modified Eagle's medium (DMEM, Life Technologies Inc.) supplemented with 10% heat-inactivated FBS, 100 units/ml penicillin and 100 μg/ml streptomycin.
After treatment, cells were washed twice with phosphate buffered saline (PBS) and lysed on ice for 20 min in 0.3 ml of lysis buffer (10 mM Tris-HCl, pH 8, 60 mM KCl, 1 mM EDTA, 1 mM DTT, 0.2% NP-40). Cell lysates (50 μg) were fractionated by 8-15% SDS-PAGE and electrophoretically transferred to Immobilon-P nitrocellulose membranes (Schleicher & Schuell Inc., Keene, N.H.). […] The intensity of the bands was quantified using Histogram.
A general note: In western blotting, separated proteins are transferred to a membrane and probed.

The conditions of data set [1]: mice, Kuroda et al., 2000; cited from earlier work.
The subject of data set [2] is TNF-resistant AAB527 cells. As to the kind of experiment: cDNA microarray analysis. The following applies: 24 h, 2500 genes.
For a further data set, the system named is Human neuroglioma H4. As to the kind of experiment: Cytotoxicity of scFvMEL/TNF vs TNF, crystal violet. Type of data set: cell-based. The note with it: 72 h treatment; gp240 (−), TNF-resistant.
Another data set relates to A375-M and AAB-527 cells. In words: Western blot of signaling and PARP cleavage in melanoma cells. Type of data set: cell-based, human.
For the next data set, the system named is A375-M Cells. As to the kind of experiment: Neutralization of cytotoxicity by anti-TNFR1 antibody. The following applies: 25 μg/ml antibody. It counts as cell-based, human.
The test system of data set [3] is AsPc-1, Capan-1, Capan-2, and L3.6pl. The note with it: across the four cell lines.
The next data set deals with SKBR3-HP cells. In words: Neutralization of cytotoxicity by anti-TNFR1 antibody. It counts as cell-based, human. The note with it: 25 μg/ml antibody.
Data set [4] concerns L-929 murine fibroblast cells. As to the kind of experiment: TNF biologic activity, cytotoxicity in L-929 cells. It counts as cell-based. An excerpt:
The expression and purification of TNF were the same as that of the fusion protein scFvMEL/TNF. […] The rHuTNFα from Roche Molecular Biochemicals (Indianapolis, Ind.) was used as a standard. The biological activity of the final purified huTNF was 2×10^7 U/mg protein.

Data set [5] in a line: Pharmacokinetics of 125I-labeled proteins in mice. It counts as in vivo, BALB/c mice. The following applies: i.v.
Data set [6] has as its system HER-2-overexpressing SKBR-3/H cells. As to the kind of experiment: Western blot, DNA fragmentation, TUNEL: signal transduction effects. It counts as cell-based, human. Also noted: key to Akt / Caspase-8 cleavage / Caspase-3 cleavage / PARP cleavage / DNA fragmentation / TRADD / TRAF-2: NE represents no effect. The following applies: 200 nM. The procedure: Apoptosis was detected by DNA fragmentation and TUNEL assay. […] After 24 hr and 48 hr, cells were washed with PBS, resuspended in a DNA extraction buffer containing 5 mM Tris-HCl, pH 8, 50 mM EDTA, 10 μg/ml RNAse, and 0.25% SDS and then incubated for 1 hr at 37° C. To remove protein, resuspended cell lysates were treated with 100 μg/ml proteinase K for 3 hr at 50° C. DNA was extracted using phenol and chloroform followed by ethanol precipitation. The genomic DNA was resuspended in Tris-EDTA (pH 8) and was fractionated by electrophoresis on a 1% agarose gel containing ethidium bromide.
The cells were washed with PBS, permeabilized (0.1% Triton X-100, 0.1% sodium citrate), and then fixed in 4% paraformaldehyde. Fixed cells were stained with in situ cell death detection kit (Roche). Cells undergoing apoptosis were identified by fluorescence microscopy.
After treatment, cells were washed twice with phosphate buffered saline (PBS) and lysed on ice for 20 min in 0.3 ml of lysis buffer (10 mM Tris-HCl, pH 8, 60 mM KCl, 1 mM EDTA, 1 mM DTT, 0.2% NP-40). Cell lysates (50 μg) were fractionated by 8-15% SDS-PAGE and electrophoretically transferred to Immobilon-P nitrocellulose membranes (Schleicher & Schuell Inc., Keene, N.H.). Membranes were blocked 2 hrs in Tris-buffered saline (TBS) containing 3% bovine serum albumin and then probed with various antibodies (monoclonal anti-HER-2/neu Ab, rabbit polyclonal anti-TNFR1 Ab, rabbit polyclonal anti-TNFR2 Ab, rabbit polyclonal anti-caspase-8 Ab, monoclonal anti-caspase-3 Ab, monoclonal anti-PARP Ab, rabbit polyclonal anti-TRADD Ab, rabbit polyclonal anti-TRAF2 Ab, rabbit polyclonal anti-IκB-α Ab, rabbit polyclonal anti-phospho Akt Ab, and rabbit polyclonal anti-Akt Ab). Goat anti-mouse/goat anti-rabbit or swain anti-goat antibodies conjugated with horseradish peroxidase (Bio-Rad Laboratories, Hercules, Calif.) were used to visualize immunoreactive proteins at a 1:4000 dilution using ECL detection reagent (Amersham Pharmacia Biotech Inc., Piscataway, N.J.).

For a further data set, the system named is Capan-2. As to the kind of experiment: In vitro cytotoxicity and combination study, crystal violet. The following applies: 72 hr of exposure. It counts as cell-based, human. An excerpt: (§1) If CI near to 1 indicates additive effect (ADD), CI>1 indicates antagonism (ANT), CI<1 indicates synergism (SYN).
The test system of the next data set is AsPc-1. The data set is described as above. Type of data set: cell-based, human. The following applies: 72 hr of exposure.
Excerpt: as §1

In the next data set the test system is Capan-1. The data set is described as above. Type of data set: cell-based, human. The following applies: 72 hr of exposure.
Excerpt: as §1

Another data set deals with L3.6pl. The data set is described as above. Type of data set: cell-based, human. The following applies: 72 hr of exposure.
Excerpt: as §1

Another data set relates to SKBR-3/H. In words: In vitro cytotoxicity, XTT. Type of data set: cell-based, human. As to the method: SKBR-3 cells were grown in McCoy's 5A modified medium, supplemented with 10% heat-inactivated fetal bovine serum (FBS), 2 mM L-glutamine, 100 units/ml penicillin and 100 μg/ml streptomycin.
After 72 hr, 50 μl of XTT labeling mixture (Roche) was added to each well, after which the cells incubated for another 4 hr. The spectrophotometric absorbance was measured at 450 nm using an ELISA reader (Bio-Tek Instruments, Inc., Winooski, Vt.).
For orientation: Tetrazolium assays rely on reduction of a dye to a coloured formazan, in cell work by metabolically active cells.

“And” between values parts separate entries of the source, which are not always exact repeats. Identical values can stand only once. Like-named read-outs stand apart in the source and are kept apart here. A value given as a limit tells only on which side of the number the result lay.

As to “Herceptin: humanized anti-HER-2/neu antibody [reference compound]”, the “TNF-R1 expression, increase compared to controls” value in the data set on SKBR-3-LP cells is 1.8 fold.
As for “TNF: Tumor necrosis factor, recombinant human TNF-alpha, cytotoxic polypeptide of 17 kDa”, the “MTD reported for TNF itself” value in data set [1] was 0.3 mg/kg. Besides, in data set [2], the “genes down regulated by both scFvMEL/TNF and TNF” value is reported as 67 genes; the “genes up regulated by both scFvMEL/TNF and TNF” value is 63 genes. In addition, in the data set with Human neuroglioma H4, the IC50 (as a rule, the concentration that gives 50% inhibition) was greater than 5000 nM. For the same substance, the “PARP cleavage in TNF-resistant AAB-527” value in the data set on A375-M and AAB-527 cells (24 h, TNF up to 200 nM, scFvMEL/TNF 20 nM) was “no PARP cleavage”. Further, the SAPK/JNK pathway activation entry in the data set on A375-M and AAB-527 cells (A375-M and AAB-527) is reported as “rapidly stimulated SAPK/JNK activation”. In the data set on A375-M Cells, the “neutralization of cytotoxicity by anti-TNFR1” value is 100%. The substance also showed an IC50 in data set [3] greater than 1600 nM. Also, the “neutralization of cytotoxicity by anti-TNFR1” value in the data set with SKBR3-HP cells is recorded as 100%. Besides, in [4], the biological activity was 2×10^7 U/mg protein and the specific activity is listed as 26.7×10^6 units/mg protein. Besides, in data set [5], the “C × t: the area under the concentration curve” value was found to be 3.51 μ Ci/ml × min; the “Plasma Half Life (α)” value came out at 0.45 h; the “Plasma Half Life (β)” value is 2.68 h; the “Vd: volume of distribution” value was 3.9 mL and 3.95 mL. Besides, in data set [5], the “area under the concentration curve (c×t)” value is given as 3.5 μCiml-1 min; the “half-life, α-phase” value is 0.452 h; the “half-life, β-phase” value was found to be 2.7 h. Besides, in data set [6], the Akt result is “NE”, the Caspase-3 cleavage result is “NE”, the Caspase-8 cleavage result is given as “NE” and the DNA fragmentation entry is “NE”. In data set [6], the IκB-α entry was “↓”, the PARP cleavage entry is “NE”, the TRADD result is recorded as “NE” and the TRAF-2 result is “NE”. Besides, the p-Akt entry in [6] is “↑”. The IC50 with Capan-2 is greater than 1600 nM. Also, the IC50 in the data set on AsPc-1 is greater than 1600 nM. Also, in the data set on Capan-1, the IC50 was greater than 1600 nM. Also, the IC50 with L3.6pl is greater than 1600 nM. Besides, the IC50 in the data set with SKBR-3/H (72 hr, read-out: IC50) is greater than 6000 nM. In addition, the IC50 in the data set on SKBR-3/H (read-out: IC50 (completely resistant at doses up to)) is greater than 6000 nM.
